pKd, pKi: −log10 of the molar value.
Legend:
[1] = Radionuclide incorporation of DOTA-compounds (thin-layer chromatography)
[2] = In vivo biodistribution of 111In-labeled test articles, SPECT/CT, kidney
[3] = In vitro metabolic stability in mouse plasma
[4] = target: T1, B7H3 (Homo sapiens, UniProt Q5ZPR3); experiment: Surface plasmon resonance binding, B7H3; conditions: read-out: SPR KD, Table 4A
[5] = target: T1, B7H3; experiment: DELFIA whole cell binding assay (KD, Ki), B7H3; conditions: read-out: DELFIA Ki, Table 4A

Amino acid sequences for entries named in this document (tags omitted). Residues count along the entry.
UniProt Q5ZPR3, 29-534 limits assumed: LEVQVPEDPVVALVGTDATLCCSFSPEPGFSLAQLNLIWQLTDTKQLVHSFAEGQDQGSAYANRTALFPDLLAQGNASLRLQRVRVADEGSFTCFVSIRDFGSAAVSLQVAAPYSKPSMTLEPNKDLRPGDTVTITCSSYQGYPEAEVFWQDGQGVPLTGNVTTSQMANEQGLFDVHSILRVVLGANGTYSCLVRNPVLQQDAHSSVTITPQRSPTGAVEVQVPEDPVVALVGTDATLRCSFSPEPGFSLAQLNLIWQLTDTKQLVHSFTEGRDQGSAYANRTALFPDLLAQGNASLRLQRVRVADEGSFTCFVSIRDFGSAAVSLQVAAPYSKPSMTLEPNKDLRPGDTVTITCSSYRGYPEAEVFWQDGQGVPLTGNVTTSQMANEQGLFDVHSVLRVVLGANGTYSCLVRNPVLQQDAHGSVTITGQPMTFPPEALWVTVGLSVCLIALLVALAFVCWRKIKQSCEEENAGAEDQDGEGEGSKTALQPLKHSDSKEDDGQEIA

Compound	% radionuclide incorporation ([1]; Indium-111) [%]	pKd [4]	pKi [5]	further results
CCCC[C@H](NC(=O)[C@@H](NC(=O)[C@H](CCC(N)=O)NC(=O)CNC(=O)[C@H](Cc1c[nH]cn1)NC(=O)[C@@H](NC(=O)[C@H](CC(C)C)NC(=O)[C@H](CC(N)=O)NC(=O)[C@@H]1CCCN1C(=O)[C@H](CC(C)C)NC(=O)[C@H](Cc1c[nH]c2ccccc12)NC(=O)[C@@H](NC(=O)[C@@H](NC(=O)[C@H](CCC(=O)O)NC(=O)[C@H](CO)NC(=O)[C@H](CC(C)C)NC(=O)[C@H](C)NC(=O)[C@H](C)NC(=O)[C@@H](NC(=O)[C@H](CCCCN)NC(=O)[C@H](CCC(=O)O)NC(=O)[C@H](CCCCN)NC(=O)[C@H](C)NC(=O)[C@H](Cc1ccc(O)cc1)NC(=O)[C@H](CCCCN)NC(=O)[C@H](C)NC(=O)[C@H](CCC(=O)O)NC(=O)[C@H](C)NC(=O)CCOCCOCCOCCOCCNC(=O)[C@H](CCCCN)NC(=O)[C@@H](NC(=O)[C@H](CCSC)NC(=O)CCOCCOCCOCCOCCNC(=O)CN1CCN(CC(=O)O)CCN(CC(=O)O)CCN(CC(=O)O)CC1)C(C)C)[C@@H](C)CC)[C@@H](C)CC)[C@@H](C)CC)[C@@H](C)O)[C@@H](C)CC)C(=O)N[C@@H](C)C(=O)N[C@@H](Cc1ccccc1)C(=O)N[C@H](C(=O)N[C@@H](C)C(=O)N[C@@H](C)C(=O)N[C@@H](CC(C)C)C(=O)N[C@@H](CC(N)=O)C(=O)N[C@@H](CC(=O)O)C(=O)N[C@@H](CC(=O)O)C(=O)N1CCC[C@H]1C(=O)N[C@@H](CO)C(=O)N[C@@H](CCC(N)=O)C(=O)N[C@@H](CO)C(=O)N[C@@H](CO)C(=O)N[C@@H](CCC(=O)O)C(=O)N[C@@H](CC(C)C)C(=O)N[C@@H](CC(C)C)C(=O)N[C@@H](CO)C(=O)N[C@@H](CCC(=O)O)C(=O)N[C@@H](C)C(=O)N[C@@H](CCCCN)C(=O)N[C@@H](CCCCN)C(=O)N[C@@H](CC(C)C)C(=O)N[C@@H](CC(N)=O)C(=O)N[C@@H](CC(=O)O)C(=O)N[C@@H](CO)C(=O)N[C@@H](CCC(N)=O)C(=O)N[C@@H](C)C(=O)N1CCC[C@H]1C(=O)N[C@@H](CCCCN)C(N)=O)[C@@H](C)CC.[In+3]	–	8.07	7.86	–
CC[C@H](C)[C@@H]1NC(=O)[C@H](CC(=O)O)NC(=O)CNC(=O)CNC(=O)[C@H](CCCNC(=N)N)NC(=O)[C@H](CC(C)C)NC(=O)[C@H](CCCNC(=N)N)NC(=O)[C@H](CCCCN)NC(=O)[C@H](CC(C)C)NC(=O)[C@H](C)NC(=O)[C@H]([C@@H](C)O)NC(=O)[C@H](Cc2ccccc2)NC(=O)[C@H](Cc2ccccc2)NC(=O)[C@H](CCC(=O)O)NC(=O)[C@H](CCC(=O)O)NC(=O)[C@H](CC(=O)O)NC(=O)[C@H](Cc2ccc(O)cc2)NC(=O)[C@H](CCC(=O)O)NC(=O)[C@@H](NC(=O)CCOCCOCCOCCOCCNC(=O)[C@H](CCCCN)NC(=O)[C@H](Cc2c[nH]c3ccccc23)NC(=O)[C@H](CCSC)NC(=O)CCOCCOCCOCCOCCNC(=O)CN2CCN(CC(=O)O)CCN(CC(=O)O)CCN(CC(=O)O)CC2)CSSC[C@@H]2NC(=O)[C@H](CC(C)C)NC(=O)[C@H](CCCCN)NC(=O)[C@@H]3CCCN3C(=O)[C@H](C(C)C)NC(=O)[C@H](CCCCN)NC(=O)[C@H](CCCCN)NC(=O)[C@H](Cc3ccccc3)NC(=O)[C@H](CCCCN)NC(=O)[C@H](CCCCN)NC(=O)[C@H](CCCCN)NC(=O)[C@H]([C@@H](C)CC)NC(=O)[C@H](Cc3ccc(O)cc3)NC(=O)[C@H](Cc3ccc(O)cc3)NC(=O)[C@H](CSSC[C@@H](C(N)=O)NC(=O)CNC(=O)[C@H](CC(C)C)NC(=O)[C@H](CCCCN)NC(=O)[C@H](CC(=O)O)NC(=O)[C@H](CC(C)C)NC(=O)[C@H]([C@@H](C)CC)NC(=O)[C@H](CCC(=O)O)NC(=O)[C@H](CCC(=O)O)NC(=O)[C@H]([C@@H](C)CC)NC2=O)NC1=O	94.7	–	–	kidney uptake and retention ([2]; FIG. 5, Version 1 cleavable linker, vs C14, 4 and 24 hours): minimal alterations
CCCC[C@H](NC(=O)[C@@H](NC(=O)[C@H](CCC(N)=O)NC(=O)CNC(=O)[C@H](Cc1c[nH]cn1)NC(=O)[C@@H](NC(=O)[C@H](CC(C)C)NC(=O)[C@H](CC(N)=O)NC(=O)[C@@H]1CCCN1C(=O)[C@H](CC(C)C)NC(=O)[C@H](Cc1c[nH]c2ccccc12)NC(=O)[C@@H](NC(=O)[C@@H](NC(=O)[C@H](CCC(=O)O)NC(=O)[C@H](CO)NC(=O)[C@H](CC(C)C)NC(=O)[C@H](C)NC(=O)[C@H](C)NC(=O)[C@@H](NC(=O)[C@H](CCCCN)NC(=O)[C@H](CCC(=O)O)NC(=O)[C@H](CCCCN)NC(=O)[C@H](C)NC(=O)[C@H](Cc1ccc(O)cc1)NC(=O)[C@H](CCCCN)NC(=O)[C@H](C)NC(=O)[C@H](CCC(=O)O)NC(=O)[C@H](C)NC(=O)CCOCCOCCOCCOCCNC(=O)[C@H](CCCCN)NC(=O)[C@H](Cc1c[nH]c2ccccc12)NC(=O)[C@H](CCSC)NC(=O)CCOCCOCCOCCOCCNC(=O)CN1CCN(CC(=O)O)CCN(CC(=O)O)CCN(CC(=O)O)CC1)[C@@H](C)CC)[C@@H](C)CC)[C@@H](C)CC)[C@@H](C)O)[C@@H](C)CC)C(=O)N[C@@H](C)C(=O)N[C@@H](Cc1ccccc1)C(=O)N[C@H](C(=O)N[C@@H](C)C(=O)N[C@@H](C)C(=O)N[C@@H](CC(C)C)C(=O)N[C@@H](CC(N)=O)C(=O)N[C@@H](CC(=O)O)C(=O)N[C@@H](CC(=O)O)C(=O)N1CCC[C@H]1C(=O)N[C@@H](CO)C(=O)N[C@@H](CCC(N)=O)C(=O)N[C@@H](CO)C(=O)N[C@@H](CO)C(=O)N[C@@H](CCC(=O)O)C(=O)N[C@@H](CC(C)C)C(=O)N[C@@H](CC(C)C)C(=O)N[C@@H](CO)C(=O)N[C@@H](CCC(=O)O)C(=O)N[C@@H](C)C(=O)N[C@@H](CCCCN)C(=O)N[C@@H](CCCCN)C(=O)N[C@@H](CC(C)C)C(=O)N[C@@H](CC(N)=O)C(=O)N[C@@H](CC(=O)O)C(=O)N[C@@H](CO)C(=O)N[C@@H](CCC(N)=O)C(=O)N[C@@H](C)C(=O)N1CCC[C@H]1C(=O)N[C@@H](CCCCN)C(N)=O)[C@@H](C)CC.[In+3]	–	8.25	7.87	–

The next lines start with results.

% radionuclide incorporation ([1]; Indium-111) [%]	pKd [4]	pKi [5]	Compound	further results
97	–	–	CC[C@H](C)[C@@H]1NC(=O)[C@H](CC(=O)O)NC(=O)CNC(=O)CNC(=O)[C@H](CCCNC(N)=O)NC(=O)[C@H](CC(C)C)NC(=O)[C@H](CCCNC(N)=O)NC(=O)[C@H](CCCCNC(C)=O)NC(=O)[C@H](CC(C)C)NC(=O)[C@H](C)NC(=O)[C@H]([C@@H](C)O)NC(=O)[C@H](Cc2ccccc2)NC(=O)[C@H](Cc2ccccc2)NC(=O)[C@H](CCC(=O)O)NC(=O)[C@H](CCC(=O)O)NC(=O)[C@H](CC(=O)O)NC(=O)[C@H](Cc2ccc(O)cc2)NC(=O)[C@H](CCC(=O)O)NC(=O)[C@@H](NC(=O)CCOCCOCCOCCOCCNC(=O)CN2CCN(CC(=O)O)CCN(CC(=O)O)CCN(CC(=O)O)CC2)CSSC[C@@H]2NC(=O)[C@H](CC(C)C)NC(=O)[C@H](CCCCNC(C)=O)NC(=O)[C@@H]3CCCN3C(=O)[C@H](C(C)C)NC(=O)[C@H](CCCCNC(C)=O)NC(=O)[C@H](CCCCNC(C)=O)NC(=O)[C@H](Cc3ccccc3)NC(=O)[C@H](CCCCNC(C)=O)NC(=O)[C@H](CCCCNC(C)=O)NC(=O)[C@H](CCCCNC(C)=O)NC(=O)[C@H]([C@@H](C)CC)NC(=O)[C@H](Cc3ccc(O)cc3)NC(=O)[C@H](Cc3ccc(O)cc3)NC(=O)[C@H](CSSC[C@@H](C(N)=O)NC(=O)CNC(=O)[C@H](CC(C)C)NC(=O)[C@H](CCCCNC(C)=O)NC(=O)[C@H](CC(=O)O)NC(=O)[C@H](CC(C)C)NC(=O)[C@H]([C@@H](C)CC)NC(=O)[C@H](CCC(=O)O)NC(=O)[C@H](CCC(=O)O)NC(=O)[C@H]([C@@H](C)CC)NC2=O)NC1=O	% radionuclide incorporation ([1]; Lutetium-177): >90%; kidney retention ([2]; FIG. 1, Nectin-4 charge variant conjugates, 4 and 24 hours post-administration): Reduced levels of kidney retention; mPlasma (t½ hr) [3]: >12 h
–	8.56	7.88	CCCC[C@H](NC(=O)[C@@H](NC(=O)[C@H](CCC(N)=O)NC(=O)CNC(=O)[C@H](Cc1c[nH]cn1)NC(=O)[C@@H](NC(=O)[C@H](CC(C)C)NC(=O)[C@H](CC(N)=O)NC(=O)[C@@H]1CCCN1C(=O)[C@H](CC(C)C)NC(=O)[C@H](Cc1c[nH]c2ccccc12)NC(=O)[C@@H](NC(=O)[C@@H](NC(=O)[C@H](CCC(=O)O)NC(=O)[C@H](CO)NC(=O)[C@H](CC(C)C)NC(=O)[C@H](C)NC(=O)[C@H](C)NC(=O)[C@@H](NC(=O)[C@H](CCCCN)NC(=O)[C@H](CCC(=O)O)NC(=O)[C@H](CCCCN)NC(=O)[C@H](C)NC(=O)[C@H](Cc1ccc(O)cc1)NC(=O)[C@H](CCCCN)NC(=O)[C@H](C)NC(=O)[C@H](CCC(=O)O)NC(=O)[C@H](C)NC(=O)CCOCCOCCOCCOCCNC(=O)[C@H](CCCNC(N)=O)NC(=O)[C@@H](NC(=O)[C@H](CCC(=O)O)NC(=O)CCOCCOCCOCCOCCNC(=O)CN1CCN(CC(=O)O)CCN(CC(=O)O)CCN(CC(=O)O)CC1)C(C)C)[C@@H](C)CC)[C@@H](C)CC)[C@@H](C)CC)[C@@H](C)O)[C@@H](C)CC)C(=O)N[C@@H](C)C(=O)N[C@@H](Cc1ccccc1)C(=O)N[C@H](C(=O)N[C@@H](C)C(=O)N[C@@H](C)C(=O)N[C@@H](CC(C)C)C(=O)N[C@@H](CC(N)=O)C(=O)N[C@@H](CC(=O)O)C(=O)N[C@@H](CC(=O)O)C(=O)N1CCC[C@H]1C(=O)N[C@@H](CO)C(=O)N[C@@H](CCC(N)=O)C(=O)N[C@@H](CO)C(=O)N[C@@H](CO)C(=O)N[C@@H](CCC(=O)O)C(=O)N[C@@H](CC(C)C)C(=O)N[C@@H](CC(C)C)C(=O)N[C@@H](CO)C(=O)N[C@@H](CCC(=O)O)C(=O)N[C@@H](C)C(=O)N[C@@H](CCCCN)C(=O)N[C@@H](CCCCN)C(=O)N[C@@H](CC(C)C)C(=O)N[C@@H](CC(N)=O)C(=O)N[C@@H](CC(=O)O)C(=O)N[C@@H](CO)C(=O)N[C@@H](CCC(N)=O)C(=O)N[C@@H](C)C(=O)N1CCC[C@H]1C(=O)N[C@@H](CCCCN)C(N)=O)[C@@H](C)CC.[In+3]	–
